For one molecule, tolerability results are on record in article PMC9290024 (ACS Medicinal Chemistry Letters, 2022).

For this series, the system named is KMS-11 xenograft tumor. Briefly: In vivo efficacy in KMS-11 cell line-derived xenograft model. Also noted: species or system NOD SCID mouse. Conditions: daily dosing of 15 and 30 mg/kg bid in mice.

As to `CC(=O)N1CCN([C@H]2CCC[C@@H](NC(=O)c3cc4c(F)ccc(C)c4[nH]3)C2)CC1` [EZM0414], the tolerability result is recorded as “well-tolerated”.
